Experimental data: US20090221532A1 (priority 2005, published 2009)

Tested on: Patients undergoing elective colonoscopy
Assay: Example 1A: sedation for elective colonoscopy, mg/kg bolus dose-ranging with fentanyl pretreatment (Modified OAA/S)
Conditions: for Time to Fully Alert, Mean / Time to Fully Alert, Median / Time to Fully Recovered, Mean / Time to Fully Recovered, Median / Time to Ready for Discharge, Mean / Time to Ready for Discharge, Median: from withdrawal of colonoscope
[1] = initial bolus dose 620 to <777 mg
[2] = initial bolus dose 777 to <955 mg

## O-phosphonooxymethyl propofol disodium salt
620-<777 mg
  Incidence (%) of patients who required supplemental doses to maintain sedation: 52.2%
  Number of patients who needed supplemental doses to allow the start of procedure: 3
  Number of patients who required supplemental doses to maintain sedation: 12
  Percent of patients who needed supplemental doses to allow the start of procedure: 13.0%
777-<955
  Incidence (%) of patients who required supplemental doses to maintain sedation: 30.4%
  Number of patients who needed supplemental doses to allow the start of procedure: 2
  Number of patients who required supplemental doses to maintain sedation: 7
  Percent of patients who needed supplemental doses to allow the start of procedure: 8.7%
<620 mg
  Incidence (%) of patients who required supplemental doses to maintain sedation: 68.2%
  Number of patients who needed supplemental doses to allow the start of procedure: 12
  Number of patients who required supplemental doses to maintain sedation: 15
  Percent of patients who needed supplemental doses to allow the start of procedure: 54.5%
All Patients
  Number of Patients administered a total of 1 dose (initial plus supplemental): 49
  Number of Patients administered a total of 2 doses (initial plus supplemental): 25
  Number of Patients administered a total of 3 doses (initial plus supplemental): 8
  Number of Patients administered a total of 4 doses (initial plus supplemental): 7
  Number of Patients administered a total of 5 doses (initial plus supplemental): 2
  Number of Patients requiring 0 supplemental doses to maintain sedation throughout the procedure: 55
  Number of Patients requiring 1 dose to allow start of procedure: 73
  Number of Patients requiring 1 supplemental dose to maintain sedation throughout the procedure: 28
  Number of Patients requiring 2 doses to allow start of procedure: 11
  Number of Patients requiring 2 supplemental doses to maintain sedation throughout the procedure: 8
  Number of Patients requiring 3 doses to allow start of procedure: 6
  Number of Patients requiring 4 doses to allow start of procedure: 1
  Time to Achieve Sedation (first Modified OAA/S score ≦4), Mean: 2.7 min
  Time to Achieve Sedation (first Modified OAA/S score ≦4), Median: 2.0 min
  Time to Fully Alert, Mean: 11.2 min
  Time to Fully Alert, Median: 11.0 min
  Time to Fully Recovered, Mean: 20.1 min
  Time to Fully Recovered, Median: 20.0 min
  Time to Ready for Discharge, Mean: 37.2 min
  Time to Ready for Discharge, Median: 37.0 min
FIG. 2
  Cumulative dose at which mean Modified OAA/S scores fell below 2 during the procedure: > 777 mg
FIG. 2, following administration of 620 mg to 955 mg
  Time to induction of mild to moderate sedation levels (Modified OAA/S≧2 and ≦4): ≤ 2 min
FIG. 4A, <620 mg up to procedure start
  Percent of time patients remained within Modified OAA/S levels of 2, 3, or 4 during colonoscopy: 83.6%
FIG. 4A, increasing bolus dose
  Percent of procedural time at MOAA/S levels more consistent with deep sedation, range: 16.2% to 43.2%
FIG. 4A, increasing initial bolus doses (higher quartiles)
  Percent of time patients remained within Modified OAA/S levels of 2, 3, or 4 during colonoscopy, range: 78.9% to 52.2%
All patients
  Percent of patients for whom the initial bolus dose was sufficient to start the procedure: 80.2%
  Percent of patients who required more than 1 supplemental dose to maintain sedation: 8.8%
Cumulative doses from 620 mg to 955 mg
  Time of recovery from mild to moderate sedation to a Modified OAA/S of 5 after end of procedure: 9 to 12 min
First quartile of initial bolus dose
  Percentage of patients who required only a single dose to initiate and maintain sedation: 18.2%
Fourth quartile of initial bolus dose
  Percentage of patients who required only a single dose to initiate and maintain sedation: 87.0%
[1]
  Number of Patients administered a total of 1 dose (initial plus supplemental): 10
  Number of Patients administered a total of 2 doses (initial plus supplemental): 10
  Number of Patients administered a total of 3 doses (initial plus supplemental): 1
  Number of Patients administered a total of 4 doses (initial plus supplemental): 2
  Number of Patients administered a total of 5 doses (initial plus supplemental): 0
  Number of Patients requiring 1 dose to allow start of procedure: 20
  Number of Patients requiring 2 doses to allow start of procedure: 1
  Number of Patients requiring 3 doses to allow start of procedure: 2
  Number of Patients requiring 4 doses to allow start of procedure: 0
  Time to Achieve Sedation (first Modified OAA/S score ≦4), Mean: 2.7 min
  Time to Achieve Sedation (first Modified OAA/S score ≦4), Median: 2.5 min
  Time to Fully Alert, Mean: 9.3 min
  Time to Fully Alert, Median: 8.0 min
  Time to Fully Recovered, Mean: 17.1 min
  Time to Fully Recovered, Median: 17.0 min
  Time to Ready for Discharge, Mean: 35.8 min
  Time to Ready for Discharge, Median: 34.0 min
[2]
  Number of Patients administered a total of 1 dose (initial plus supplemental): 15
  Number of Patients administered a total of 2 doses (initial plus supplemental): 6
  Number of Patients administered a total of 3 doses (initial plus supplemental): 1
  Number of Patients administered a total of 4 doses (initial plus supplemental): 1
  Number of Patients administered a total of 5 doses (initial plus supplemental): 0
  Number of Patients requiring 0 supplemental doses to maintain sedation throughout the procedure: 16
  Number of Patients requiring 1 dose to allow start of procedure: 21
  Number of Patients requiring 1 supplemental dose to maintain sedation throughout the procedure: 5
  Number of Patients requiring 2 doses to allow start of procedure: 2
  Number of Patients requiring 2 supplemental doses to maintain sedation throughout the procedure: 2
  Number of Patients requiring 3 doses to allow start of procedure: 0
  Number of Patients requiring 4 doses to allow start of procedure: 0
  Time to Achieve Sedation (first Modified OAA/S score ≦4), Mean: 2.0 min
  Time to Achieve Sedation (first Modified OAA/S score ≦4), Median: 2.0 min
  Time to Fully Alert, Mean: 12.0 min
  Time to Fully Alert, Median: 13.0 min
  Time to Fully Recovered, Mean: 21.7 min
  Time to Fully Recovered, Median: 21.0 min
  Time to Ready for Discharge, Mean: 39.6 min
  Time to Ready for Discharge, Median: 38.0 min
Initial bolus dose <620 mg
  Number of Patients administered a total of 1 dose (initial plus supplemental): 4
